This experiment deals with cloned human δ opioid receptor (Homo sapiens, UniProt P41143). Briefly: Radioligand binding, competitive inhibition of [3H]DPDPE. The settings on record: Table 6.

We go through four molecules from patent publication US7390822B2, “Substituted 4-phenyl-4-[1H-imidazol-2-yl]-piperidine derivatives for reducing ischaemic damage” (Janssen Pharmaceutica, N.V., priority 2001, dated 2008).

Turning to `c1ccc(Cn2ccnc2C2(c3ccccc3)CCN(c3ncccn3)CC2)cc1`, the “pIC50 values for the delta opioid receptor agonist test” value is listed as 7.7.

As for `CC(c1ccccc1)n1ccnc1C1(c2ccccc2)CCN(c2nc3ccccc3o2)CC1` (stereo not shown), the “pIC50 values for the delta opioid receptor agonist test” value stood at 7.8.

Regarding `CCN(CC)C(=O)c1ccc(Cn2ccnc2C2(c3ccccc3)CCN(c3nc4ccccc4o3)CC2)cc1`, the “pIC50 values for the delta opioid receptor agonist test” value turned out to be 7.3.

In the case of `c1ccc(Cn2ccnc2C2(c3ccccc3)CCN(c3nccs3)CC2)cc1`, the “pIC50 values for the delta opioid receptor agonist test” value is reported as 7.9.
